The text below walks through data of patent publication US9649394B2, “Compositions and methods for in vivo imaging” (The General Hospital Corporation, priority 2010, dated 2017).

By UniProt entry, the sequences of proteins in these tests, tags left out.
UniProt P09874, whole entry: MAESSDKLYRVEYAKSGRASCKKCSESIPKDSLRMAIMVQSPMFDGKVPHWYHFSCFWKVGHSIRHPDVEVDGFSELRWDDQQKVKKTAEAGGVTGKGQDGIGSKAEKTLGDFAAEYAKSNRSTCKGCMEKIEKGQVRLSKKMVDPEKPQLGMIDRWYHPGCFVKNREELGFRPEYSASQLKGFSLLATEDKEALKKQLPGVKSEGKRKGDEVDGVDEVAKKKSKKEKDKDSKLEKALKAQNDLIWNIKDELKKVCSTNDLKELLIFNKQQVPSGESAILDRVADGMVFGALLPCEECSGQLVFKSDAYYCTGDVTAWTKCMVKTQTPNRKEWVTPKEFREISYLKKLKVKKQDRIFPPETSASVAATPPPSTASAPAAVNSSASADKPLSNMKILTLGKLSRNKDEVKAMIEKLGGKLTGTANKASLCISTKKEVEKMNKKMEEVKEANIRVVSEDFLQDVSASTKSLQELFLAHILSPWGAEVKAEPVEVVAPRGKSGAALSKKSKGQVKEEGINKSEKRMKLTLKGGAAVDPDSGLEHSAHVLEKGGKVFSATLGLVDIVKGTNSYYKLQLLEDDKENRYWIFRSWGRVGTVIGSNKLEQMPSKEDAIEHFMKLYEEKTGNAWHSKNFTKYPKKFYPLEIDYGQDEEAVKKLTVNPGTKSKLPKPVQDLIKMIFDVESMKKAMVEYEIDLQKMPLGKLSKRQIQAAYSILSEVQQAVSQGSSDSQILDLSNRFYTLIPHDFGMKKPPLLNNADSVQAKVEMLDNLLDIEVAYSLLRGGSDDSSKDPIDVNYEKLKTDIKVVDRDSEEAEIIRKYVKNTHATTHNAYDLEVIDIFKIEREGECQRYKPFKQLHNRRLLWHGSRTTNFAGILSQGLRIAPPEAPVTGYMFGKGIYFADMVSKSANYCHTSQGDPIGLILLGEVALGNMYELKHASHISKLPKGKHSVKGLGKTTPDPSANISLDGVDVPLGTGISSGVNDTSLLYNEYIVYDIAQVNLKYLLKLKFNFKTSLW

For series [1], the target named is PARP1 (Homo sapiens, UniProt P09874). Kind of series: Colorimetric PARP1 activity assay (Trevigen), IC50 determination. It counts as biochemical. The following applies: Example 2 and 3 text; isolated enzyme.
The test system of series [2] is MDA-MB-231 and MDA-MB-436 cells. Kind of series: Competitive cellular uptake of 18F-AZD2281 (gamma-counting).
Series [3] is described as follows: PET-CT organ distribution in non-tumor bearing Nu/Nu mice.
Series [4] has as its system MDA-MB-436 tumors. The series is described as follows: PET-CT imaging of MDA-MB-436 tumor-bearing mice, with and without AZD2281. The following applies: tumor-bearing mouse, 30 mCi.
The subject of series [5] is A2780 tumors. The series is described as follows: Non-invasive monitoring of treatment response in tumor-bearing Nu/Nu mice (SUV). The following applies: 0.5-1.0 mg AZD2281 ip or iv before imaging.

In the case of `O=C(CCCC(=O)N1CCN(C(=O)c2cc(Cc3n[nH]c(=O)c4ccccc34)ccc2F)CC1)NCc1ccc(-c2nncnn2)cc1`, the concentration for half-maximal inhibition (IC50) in series [1] is 8.4 nM.
In series [1], `O=C(CCCC(=O)N1CCN(C(=O)c2cc(Cc3n[nH]c(=O)c4ccccc34)ccc2F)CC1)NCc1ccc(-c2nncc3c2CCC(OCC[18F])CCC3)cc1` (stereo not drawn) registered a 50% inhibitory concentration (IC50) of 17.9 nM. For the same compound, the cell permeability entry in series [2] (5 μCi, 20 minutes incubation) is listed as “cell-permeable”. The “cellular uptake upon addition of excess nonradioactive AZD2281” value in series [2] (AZD2281 10 μM to 0.01 nM) is given as “inhibitable”. Further, the “cellular uptake, comparison of cell lines” value in series [2] (MDA-MB-231 (low PARP1) versus MDA-MB-436 (high PARP1)) was “lower for MDA-MB-231 cells than for MDA-MB-436 cells”. The compound further registered a t1/2 in bloodstream in series [3] (PET) of 6 min. Further, the “initial localization of the probe” value in series [3] (PET at 10, 30, 50 minutes, hepatobiliary excretion) is “mainly in liver, gall bladder, and intestines”. In addition, in series [4], the “uptake in the tumors” value was “clearly visible”. The “tumor signal after injection of Olaparib” value in series [5] is reported as “drop”.
